Protein sequences, listed by entry. Tags and fused reporters are not part of them. Residues count along the entry.
UniProt P36897, 34-503 limits assumed: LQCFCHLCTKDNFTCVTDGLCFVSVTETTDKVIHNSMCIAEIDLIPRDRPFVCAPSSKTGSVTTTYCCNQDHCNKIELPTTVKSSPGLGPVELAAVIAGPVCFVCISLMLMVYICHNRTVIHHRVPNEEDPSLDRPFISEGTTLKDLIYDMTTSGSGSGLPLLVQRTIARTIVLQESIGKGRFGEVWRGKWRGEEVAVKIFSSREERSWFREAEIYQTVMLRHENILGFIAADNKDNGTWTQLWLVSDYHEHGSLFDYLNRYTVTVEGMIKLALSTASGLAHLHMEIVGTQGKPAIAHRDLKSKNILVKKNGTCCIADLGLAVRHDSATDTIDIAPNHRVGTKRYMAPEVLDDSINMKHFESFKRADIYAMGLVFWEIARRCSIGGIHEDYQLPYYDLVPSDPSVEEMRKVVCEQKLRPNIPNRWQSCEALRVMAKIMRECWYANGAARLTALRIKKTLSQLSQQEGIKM

In US20110028472A1, “THIENOPYRIMIDINES” (MERCK PATENT CESELLSCHAFT MIT BESCHRANKTER HAFTUNG, priority 2008, published 2011):

Biological target: GST-ALK5 (Homo sapiens, UniProt P36897)
Test: In-vitro (enzyme) kinase assay, 384-well flashplate, inhibition of TGF-beta receptor I kinase
Details: read-out: Inhibition of TGF-beta IC50, 31.2 nM GST-ALK5, 439 nM GST-SMAD2, 3 mM ATP (33P-ATP), 30° C., 45 min
Protocol: In-Vitro (Enzyme) Assay for the Determination of the Efficacy of Inhibitors of the Inhibition of TGF-Beta-Promoted Effects Vermittelten Wirkungen
The kinase assay is carried out as 384-well flashplate assay. 31.2 nM of GST-ALK5, 439 nM of GST-SMAD2 and 3 mM of ATP (with 0.3 μCi of ^33P-ATP/well) are incubated in a total volume of 35 μl (20 mM of HEPES, 10 mM of MgCl, 5 mM of MnCl, 1 mM of DTT, 0.1% of BSA, pH 7.4) without or with test substance (5-10 concentrations) at 30° C. for 45 min. The reaction is stopped using 25 μl of 200 mM EDTA solution, filtered with suction at room temperature after 30 min, and the wells are washed with 3 times 100 μl of 0.9% NaCl solution. Radioactivity is measured in the TopCount. The IC50 values are calculated using RS1.

IC50: 74 nM
Compound: Cc1cccc(-c2nc(C(C)(C)C)nc3sc(C(N)=O)c(N)c23)n1
